This note sets out measurements from ChEMBL document CHEMBL5512644 (Eur J Med Chem, 2024).

The species named for this experiment is Homo sapiens. Briefly: Selectivity ratio of Ki for displacement of [3H]-EYF from monoclonal human NPFF2 receptor expressed in CHO cells to Ki for displacement of [3H]NPVF from monoclonal human NPFF1 receptor expressed in CHO cells.

For the molecule `O=C(CN1CCC(Cc2ccccc2)CC1)NCC1(Nc2cccc3ccccc23)CCN(Cc2ccccc2)CC1`, the Ratio Ki was above 15.
